Experimental data taken from US20240368118A1, “CEREBLON BINDING COMPOUNDS, COMPOSITIONS THEREOF, AND METHODS OF TREATMENT THEREWITH” (CELGENE CORPORATION, priority 2021, published 2024).

The chains behind the UniProt entries cited, without tags or fusion partners. Where a name states a change or a piece, a line headed by the entry shows the natural chain unless it says otherwise.
UniProt P10275: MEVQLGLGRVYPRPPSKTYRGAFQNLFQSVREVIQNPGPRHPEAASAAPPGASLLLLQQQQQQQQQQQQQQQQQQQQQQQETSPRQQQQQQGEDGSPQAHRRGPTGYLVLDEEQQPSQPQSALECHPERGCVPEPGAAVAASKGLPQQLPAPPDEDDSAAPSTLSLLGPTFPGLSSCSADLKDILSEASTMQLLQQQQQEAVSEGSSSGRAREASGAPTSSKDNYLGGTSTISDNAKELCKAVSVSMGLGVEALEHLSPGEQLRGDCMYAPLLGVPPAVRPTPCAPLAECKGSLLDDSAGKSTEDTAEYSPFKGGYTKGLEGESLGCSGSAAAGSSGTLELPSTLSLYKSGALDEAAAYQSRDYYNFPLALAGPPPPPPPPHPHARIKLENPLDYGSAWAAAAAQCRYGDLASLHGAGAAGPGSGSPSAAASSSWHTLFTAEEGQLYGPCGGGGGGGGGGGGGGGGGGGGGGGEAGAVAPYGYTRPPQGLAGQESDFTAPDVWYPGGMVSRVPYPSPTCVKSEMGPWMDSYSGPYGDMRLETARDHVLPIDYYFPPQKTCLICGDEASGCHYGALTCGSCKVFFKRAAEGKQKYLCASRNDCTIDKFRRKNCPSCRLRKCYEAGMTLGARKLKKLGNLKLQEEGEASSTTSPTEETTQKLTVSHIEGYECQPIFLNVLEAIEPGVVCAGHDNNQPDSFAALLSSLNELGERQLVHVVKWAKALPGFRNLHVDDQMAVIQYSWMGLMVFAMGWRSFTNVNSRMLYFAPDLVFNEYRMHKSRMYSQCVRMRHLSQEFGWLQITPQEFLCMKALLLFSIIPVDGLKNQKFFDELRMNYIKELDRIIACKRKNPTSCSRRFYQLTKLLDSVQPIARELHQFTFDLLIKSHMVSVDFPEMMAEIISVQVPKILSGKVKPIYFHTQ

Molecular target: T1, AR (Homo sapiens, UniProt P10275)
T1 construct: endogenous in cells; host or cells: VCaP cells
Assay: VCAP AR Degradation Assay
Type: cell-based
Settings: VCaP cells, 24 h
Experimental: VCAP AR Degradation Assay. Test compounds were pre-dispensed into a Corning CellBind 96-well clear bottom plate (Cat #3300) using an acoustic dispenser to make a 10-point concentration series at 1:3 dilution for each compound. The final top concentration of each compound was 5 μM. DMSO at a final concentration of 0.1% was used as a control. VCaP cells cultured in DMEM with 8% fetal bovine serum (FBS) were seeded at 50K cells per well in a 200 μL volume into the compound plate and incubated at 37° C. in a C02 incubator for 24 h. The medium was carefully removed from the cells and the plate was placed on ice. […] AR levels in compound-treated wells were normalized to that of DMSO control and expressed as percent of control (PoC) (y). […]
[formula] • A=YMin (lowest AR level normalized to DMSO control in response to compound treatment, as determined by curve fit) • B=YMax (maximum AR level as determined by curve fit) • C=EC50 • D=Hill Slope • x=compound concentration • EC50=the concentration of compound when y=(YMax−YMin)/2 • DC50=the concentration of the compound when y=50% of DMSO control (50% AR degradation) • y=AR protein level normalized to DMSO control
The lowest measured AR level normalized to DMSO control in response to compound treatment, termed Y value, was used to characterize the compound-mediated AR degradation efficiency.

Substance: 2-((2S,6R)-4-(3-((trans-4-(3-(4-Cyano-3-(trifluoromethyl)phenyl)-5,5-dimethyl-4-oxo-2-thioxoimidazolidin-1-yl)cyclohexyl)oxy)propyl)-2,6-dimethylpiperazin-1-yl)-N-(4-(2,4-dioxotetrahydropyrimidin-1(2H)-yl)phenyl)acetamide hydrochloride [Cmpd 18]
- DC50 (AR ELISA, concentration when AR level = 50% of DMSO control): ≤ 5 nM
- Ymin (lowest AR level normalized to DMSO control, class symbols): ** (20%<Y≤30%)
